In this assay the target is plasma DPP-IV (Rattus norvegicus, UniProt P14740). The assay can be described thus: in vivo. The note with it: read-out: DPP-IV inhibitory activity retained.

Sequences of proteins named here, by UniProt entry; tags and fusion partners are left off. Residues count along the entry.
UniProt P14740, 37-767 limits assumed: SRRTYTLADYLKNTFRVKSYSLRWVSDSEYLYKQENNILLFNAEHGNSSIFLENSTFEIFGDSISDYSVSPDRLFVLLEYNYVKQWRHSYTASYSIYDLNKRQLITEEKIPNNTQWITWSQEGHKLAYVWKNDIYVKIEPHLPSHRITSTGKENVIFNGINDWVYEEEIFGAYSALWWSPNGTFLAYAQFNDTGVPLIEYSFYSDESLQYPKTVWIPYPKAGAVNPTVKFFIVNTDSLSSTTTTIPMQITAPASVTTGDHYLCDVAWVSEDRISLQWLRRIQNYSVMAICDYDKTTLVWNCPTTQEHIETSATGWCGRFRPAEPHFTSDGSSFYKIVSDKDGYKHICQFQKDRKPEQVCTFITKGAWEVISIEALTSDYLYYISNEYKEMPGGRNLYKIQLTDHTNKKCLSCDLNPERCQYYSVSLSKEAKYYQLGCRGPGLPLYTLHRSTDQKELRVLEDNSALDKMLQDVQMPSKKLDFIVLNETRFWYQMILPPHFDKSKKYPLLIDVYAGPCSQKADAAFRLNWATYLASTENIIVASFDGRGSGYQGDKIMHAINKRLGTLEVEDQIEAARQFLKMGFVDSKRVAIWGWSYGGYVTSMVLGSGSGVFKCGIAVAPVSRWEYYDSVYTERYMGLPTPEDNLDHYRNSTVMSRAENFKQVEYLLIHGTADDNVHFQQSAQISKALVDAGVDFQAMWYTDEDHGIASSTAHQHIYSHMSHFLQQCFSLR

Turning to `N[C@@H](CC(=O)N1CCn2c(nnc2C(F)(F)F)C1)Cc1cc(F)c(F)cc1F` [MK-0431, reference compound], the inhibition at 10 mg/kg was about 50%.

Values taken from patent publication US8030315B2 (dated 2011).
